Source: publication PMC11889887, “Blockade of αvβ6 and αvβ8 integrins with a chromogranin A-derived peptide inhibits TGFβ activation in tumors and suppresses tumor growth” (Journal of Experimental & Clinical Cancer Research : CR, 2025)

How the values were obtained:
[1] = tested on: TRAMP-C2, BxPC-3, and 5637 cell lines; experiment: Cell adhesion assay on conjugate-coated plates; type: cell-based, mouse, human; conditions: plates coated with the protein; 2-3 h; crystal violet
Description: Cell adhesion assays were carried out as described previously, except that the cells were seeded into 96-well plates with their own cell culture medium containing 3% BSA.
After 2-3 h of incubation, non-adherent cells were removed by washing, and adherent cells were stained with crystal violet and quantified by spectrophotometric analysis using an A570 nm filter (iMark Microplate Absorbance Reader, Bio-Rad). In cases of uneven cell adhesion, microtiter plates were treated with 10% acetic acid (150 µL/well) to dissolve crystal violet, and the absorbance of each well was quantified as described above.

[2] = tested on: WEHI-164, TS/A, TRAMP-C2, 5M7101/GFP/CEA, and 5637 cancer cells; experiment: TGFβ bioassay on cancer cell supernatants (HEK-Blue TGFβ cells); type: cell-based, mouse, human; conditions: 48–72 h of incubation; supernatant quantified with HEK-Blue TGFβ cells
Description: The quantification of bioactive TGFβ in cell supernatants was carried out using TGFβ-Reporter HEK-Blue™ cells (InvivoGen) according to the supplier’s recommendations.
The cells were seeded on cell culture microplates, allowed to adhere for 2 h, and treated with the indicated compounds for 48–72 h. The amount of active TGFβ in the supernatant was quantified using a bioassay based on HEK-Blue™ TGFβ cells (see Methods). The results of one representative experiment per each cell line are shown (mean ± SE, n = 2–4 wells). **, P < 0.01; ****P < 0.0001 by two-tailed t-test

## *HSA: sulfo-SMCC-activated HSA, control conjugate lacking peptide 5a (2-mercaptoethanol added)
[1]
  Adhesion of single- and double-positive cells to coated microtiter plates: but not
[2]
  Production of active TGFβ by cancer cells: but not
